Rows were chosen to be rich in hits. Some 1.8% of all compounds tested hit in one or more screens of this group.
AF4-AF9 inh: MLL-AF4/AF9 protein interaction inhibition; P42568; AlphaScreen, biotin-AF4 peptide binding to FLAG-AF9; inhibition, % at 10 µM; 350,000 tested, 0.47% active; AID 651704;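 active means every replicate reaching a set inhibition limit, whatever the replicate mean, cut at about 25% in these data; inconclusive means mean inhibition reaches that limit but some replicates miss it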;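 further: 0% = plate neutral control median and 100% = total signal loss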
RAD52 anneal inh: blocks human RAD52 DNA annealing; 360,000 tested, 0.46% active; recombinant RAD52 DNA annealing, FRET fluorescence; AID 651710; P43351; inhibition, % at 18.7 µM;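 active means every replicate showing at least 50% inhibition; inconclusive means mean inhibition at least 50% but not in every replicate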
RAD54 branch: RAD54 (human) branch migration inhibition; Q92698; RAD54 Holliday junction branch migration, FAM/BHQ fluorescence; inhibition, % at 10.4 µM; 360,000 tested, 0.14% active; AID 602329;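 active means mean normalized replicate activity at least 40 and at least half of replicates scoring 40 or more; inconclusive means only one of the two criteria met; inactive means mean below 40 and under half of replicates reaching 40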;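 further: 0% = median of neutral control wells and 100% = median of positive control wells; inhibitors cause a drop in the FAM fluorescence signal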
SIRT5 inh: sirtuin-5 (human) deacylase inhibition | 330,000 tested, 1.1% active | inhibition, % at 15 µM | Purified SirT5, succinyl-peptide AMC, trypsin-coupled fluorescence; in the data active means inhibition above about 15%; inconclusive means no clear call, values can overlap the other calls
E-selectin induc: induces E-selectin expression in human endothelial cells. HUVEC E-selectin immunofluorescence imaging; normalized: neutral wells 0, TNF-alpha wells 100. AID 686992. P16581. activation, % at 7.58 µM. 260,000 tested, 0.37% active;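 active means mean E-selectin-positive cell signal at least 10% of the positive control, reached in at least 60% of replicates, without over 20% cell loss; inconclusive means no rule given, readout overlaps actives, possibly toxicity-flagged; inactive means the rest, including those meeting only one limit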
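Assay system: HUVEC, human umbilical vein endothelial cells / Amount: 3,000 HUVEC/well / Controls: TNF-alpha positive control, DMSO neutral control / Compound dosing: single concentration / Medium: EGM-2 over gelatin coat / Evaluation: percent E-selectin-positive cells / Signal: immunofluorescence imaging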
UUG fidelity: yeast start codon fidelity modulation; AID 602363; activity score, % at 18.7 µM; S. cerevisiae UUG-firefly luciferase reporter, luminescence/redox ratio; 0.13% of 350,000 active;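 active means replicate mean at a twofold rise or more, about +100% in these data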;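 further: firefly luciferase made from a UUG start codon reports start codon fidelity; reporter light over untreated wells divided by growth signal over untreated wells; some hits fall short of that in this replicate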
RAD52 DNA ctr: counter-screen for RAD52 inhibitors: DNA binding compounds | Salmon sperm DNA/acridine orange FP displacement | 1,000 tested, 8% active | AC50, µM | shares compounds with RAD52 anneal inh;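 active means fitted half-maximal concentration for signal loss at or below twice the highest dose tested, in every separate run, actives reach about 64 µM in these data; inconclusive means runs disagree, or flat partial signal loss, or poor fit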
Numbers without * were called inactive; i = inactive; ? = inconclusive; nt = not tested or not shown.

Sequence of screens – AF4-AF9 inh | RAD52 anneal inh | RAD54 branch | SIRT5 inh | E-selectin induc | UUG fidelity | RAD52 DNA ctr
1	O=C(CC1CC1)N1CC2(C1)[C@H](c1ccccc1)[C@@H](CO)N2C(=O)C1CCOCC1
  -1 | -6 | nt | -1 | 0 | nt | nt
2	O=C(NCCCN1CCOCC1)c1cc2c([nH]c3ccccc32)c(-c2cccc(Br)c2)n1
  10 | 5 | 13 | nt | nt | -15 | nt
3	COc1cccc(-c2nc(C(=O)NCCCN3CCOCC3)cc3c2[nH]c2ccccc23)c1
  2 | 59* | 27 | nt | nt | -18 | i
4	CN(C)C(=O)c1cccc(-c2ccc3c(c2)[C@@H]2[C@@H](CCN2S(=O)(=O)c2ccccc2)[C@@H](CO)N3)c1
  -2 | 8 | -1 | 8 | 0 | -6 | nt
5	O=C(C[C@H]1C=C[C@H](NC(=O)CN2CCOCC2)[C@H](CO)O1)NCCc1ccncc1
  -2 | -2 | nt | 1 | 0 | nt | nt
6	Cc1ccc2sc(N(CCCN(C)C)C(=O)c3ccc(S(=O)(=O)N(C)Cc4ccccc4)cc3)nc2c1C
  4 | 60* | -5 | -3 | nt | -2 | i
7	CCOc1cccc2sc(N(CCCN(C)C)C(=O)c3ccc(S(=O)(=O)N(CC)Cc4ccccc4)cc3)nc12
  20 | 65* | -4 | 2 | nt | 8 | i
8	CCN(Cc1ccccc1)S(=O)(=O)c1ccc(C(=O)N(CCCN(C)C)c2nc3cc(C)cc(C)c3s2)cc1
  2 | -13 | -3 | 0 | nt | -4 | i
9	C[C@H]1CN([C@@H](C)CO)C(=O)c2cc(-c3cccnc3)cnc2O[C@@H]1CN(C)C(=O)Cc1cccnc1
  1 | 6 | 2 | 1 | 0 | -13 | nt
10	CN1CCN(C2Cc3cc(Cl)ccc3Sc3cc(F)ccc32)CC1 (stereo unspecified)
  17 | 54* | nt | -4 | 0 | nt | i
11	C[C@@H]1CN([C@@H](C)CO)C(=O)Cc2cc(NC(=O)NC3CCCCC3)ccc2O[C@H]1CN(C)CC1CCCCC1
  3 | 4 | -1 | 14 | 1 | -3 | nt
12	C[C@@H]1CN([C@@H](C)CO)C(=O)Cc2cc(NS(C)(=O)=O)ccc2O[C@H]1CN(C)C(=O)Nc1ccc(C(F)(F)F)cc1
  5 | nt | nt | nt | nt | nt | nt
13	COc1ccc2nc(NC3=NC(c4ccccc4)CC(=O)N3)nc(C)c2c1 (stereo unspecified)
  -1 | 72* | nt | 0 | 0 | nt | i
14	CCc1c(C)nc(Nc2nc(C)c3cc(OC)ccc3n2)[nH]c1=O
  nt | nt | 8 | nt | nt | -22 | nt
15	C[C@@H]1CN([C@@H](C)CO)C(=O)Cc2cc(NS(=O)(=O)c3ccc(F)cc3)ccc2O[C@H]1CN(C)S(=O)(=O)c1cn(C)cn1
  0 | 0 | 6 | -2 | 0 | -1 | nt
16	COc1cc2c(cc1O)CC[n+]1cc3c(OC)c(OC)ccc3cc1-2
  -7 | 81* | 76* | nt | nt | 14 | i
17	COc1cc2c(cc1OC)-c1cc3ccc4c(c3c[n+]1CC2)OCO4
  -8 | -437 | -11 | 5 | 1 | 18 | nt
18	CCC(=O)Nc1ccc2c(c1)C(=O)N(C)C[C@@H](OC)[C@H](C)CN(C(=O)CN(C)C)[C@@H](C)CO2
  nt | nt | nt | nt | 0 | nt | nt
19	CC(=O)Nc1cccc(-c2cc(N3CCN(CCO)CC3)n3nccc3n2)c1
  2 | 57* | -3 | -3 | 5 | -19 | i
20	OCCN1CCN(c2cc(-c3ccc(CO)cc3)nc3ccnn23)CC1
  1 | 13 | 8 | nt | 0 | -8 | nt
21	C[C@@H]1CCCCO[C@@H](CN(C)S(=O)(=O)c2ccc(F)cc2)[C@H](C)CN([C@@H](C)CO)C(=O)c2cc(NC(=O)C3CCCCC3)ccc2O1
  -1 | -16 | 4 | 1 | 0 | 5 | nt
22	NCCOc1ccccc1OCCN
  1 | 58* | 3 | -3 | 7 | -2 | i
23	CC(C)CC#Cc1ccc2c(c1)O[C@@H](CN(C)Cc1cccc(F)c1)[C@H](C)CN([C@@H](C)CO)S2(=O)=O
  -8 | -6 | -2 | -3 | -1 | -1 | nt
24	CC[C@@H](C)[C@@H]1CN([C@@H](CN2CCC[C@H]2CN2C(N)=NC[C@H]2CC(C)C)C(C)C)C(=N)N1CCc1ccc(Cl)c(Cl)c1
  20 | 50* | 14 | 3 | 0 | -16 | i
25	CCC[C@@H](CN1CCC[C@H]1CN1C(N)=NC[C@H]1CC(C)C)N1C[C@@H]([C@H](C)CC)N(CCc2ccc(Cl)c(Cl)c2)C1=N
  25* | 51* | 20 | -1 | 0 | 6 | i
26	CCC[C@@H](CN1CCC[C@H]1CN1C(N)=NC[C@H]1CC(C)C)N1C[C@@H](Cc2ccccc2)N(CCCC2CCCC2)C1=N
  16 | 58* | 14 | 2 | nt | -4 | i
27	CCC[C@@H](CN1CCC[C@H]1CN1C(N)=NC[C@@H]1Cc1ccccc1)N1C[C@@H](Cc2ccccc2)N(CCCC2CCCC2)C1=N
  nt | nt | 19 | nt | nt | -2 | nt
28	CCC[C@@H](CN1CCC[C@H]1CN1C(N)=NC[C@H]1CC(C)C)N1C[C@@H](Cc2ccccc2)N(CCc2ccc(Cl)c(Cl)c2)C1=N
  33* | 65* | 17 | -4 | 0 | 4 | i
29	C[C@H]1CN([C@@H](C)CO)S(=O)(=O)c2ccc(C#Cc3ccccc3F)cc2O[C@@H]1CN(C)C
  16 | -7 | 7 | -2 | nt | 2 | nt
30	COc1cc(C(CCN2CCCC2)c2c(OC)cc(OC)c3c(C)cc(=O)oc23)cc(OC)c1OC (stereo unspecified)
  nt | nt | 2 | nt | 1 | -2 | nt
31	CCCCCc1cc(=O)oc2c(C(CCN3CCCC3)c3cc(OC)c(OC)c(OC)c3)c(OC)cc(OC)c12 (stereo unspecified)
  13 | 59* | 7 | -5 | 0 | 23 | i
32	CN1[C@@H]2Cn3c(ccc(-c4ccc(F)cc4)c3=O)[C@H]1[C@@H](C(=O)N1CCCCC1)[C@@H]2CO
  1 | 2 | -6 | -7 | 0 | nt | nt
33	CCOCCCn1c(C)nc2c[n+](CC(=O)c3ccc4ccccc4c3)cc(Br)c21
  8 | 64* | 37 | -5 | nt | 2 | i
34	COc1ccc(S(=O)(=O)N(C)C[C@@H]2Oc3ccc(NS(=O)(=O)c4ccccc4)cc3C(=O)N([C@H](C)CO)C[C@@H]2C)cc1
  nt | nt | 20 | nt | 0 | -7 | nt
35	C[C@@H]1CN([C@H](C)CO)C(=O)c2cc(Br)cnc2O[C@@H]1CN(C)CC1CCCC1
  -7 | -8 | 8 | -3 | 1 | -4 | nt
36	CCCS(=O)(=O)Nc1ccc(Nc2c3ccccc3nc3ccccc23)c(OC)c1
  15 | 64* | nt | nt | 0 | nt | ?
37	CCN(CC)CCCNC(=O)c1csc(Nc2cccc3ccccc23)n1
  17 | 92* | 23 | -5 | 0 | -2 | i
38	CS(=O)(=O)Nc1ccc2c(c1)[C@H]1C[C@@H](CC(=O)NCc3ccccc3F)O[C@H](CO)[C@H]1O2
  1 | 0 | -2 | nt | 0 | -1 | nt
39	COc1cc2c(cc1OC)C1Cc3ccc(OC)c(OC)c3CN1CC2 (stereo unspecified)
  nt | nt | 6 | nt | nt | -5 | nt

In another format: two of the compounds above.
#26 CCC[C@@H](CN1CCC[C@H]1CN1C(N)=NC[C@H]1CC(C)C)N1C[C@@H](Cc2ccccc2)N(CCCC2CCCC2)C1=N
  AF4-AF9 inh: 16	RAD52 anneal inh: 58*	RAD54 branch: 14	SIRT5 inh: 2	E-selectin induc: nt	UUG fidelity: -4	RAD52 DNA ctr: i
#27 CCC[C@@H](CN1CCC[C@H]1CN1C(N)=NC[C@@H]1Cc1ccccc1)N1C[C@@H](Cc2ccccc2)N(CCCC2CCCC2)C1=N
  AF4-AF9 inh: nt	RAD52 anneal inh: nt	RAD54 branch: 19	SIRT5 inh: nt	E-selectin induc: nt	UUG fidelity: -2	RAD52 DNA ctr: nt

AF4-AF9 inh, hit marks shown above
item	Molecule	AF4-AF9 inh	RAD52 anneal inh	SIRT5 inh	UUG fidelity
25	CCC[C@@H](CN1CCC[C@H]1CN1C(N)=NC[C@H]1CC(C)C)N1C[C@@H]([C@H](C)CC)N(CCc2ccc(Cl)c(Cl)c2)C1=N	25*	51*	-1	6
28	CCC[C@@H](CN1CCC[C@H]1CN1C(N)=NC[C@H]1CC(C)C)N1C[C@@H](Cc2ccccc2)N(CCc2ccc(Cl)c(Cl)c2)C1=N	33*	65*	-4	4
